Experimental data reported in PMC6373292 (Pharmaceutical Research, 2019).

Tested on: HDMEC monolayers
Experiment: Trans-endothelial transport assay across HDMEC monolayers
Assay type: in vitro ADME, human
Conditions: LOCI read-out, n=3–4; for Amount accumulated0-15min /amount accumulated0-60min (%): HDMEC monolayers, receiver chamber, HBSS pH 7.4, 37°C, mean±SD

## human insulin
HDMEC monolayers on fibronectin-coated Transwell polyester filters (0.4 μm), donor to receiver, samples of Table II diluted 1:1 in HBSS, 10 mM HEPES, 0.1% ovalbumin, 0.005% Tween 20, pH 7.4, 60 min, 37°C, 5% CO2, 30 rpm, mean
  Apparent permeability (Papp): 3.2 ×10⁻⁶ cm/s
  Amount accumulated0-15min /amount accumulated0-60min (%): 18.1±0.9%
Listed as human insulin
  Amount accumulated0-15min /amount accumulated0-60min (%): 18.1%
